{
  "sequences": {"note": "Chains of the proteins cited; added tags and fusions are not shown.", "UniProt P00761, whole entry": "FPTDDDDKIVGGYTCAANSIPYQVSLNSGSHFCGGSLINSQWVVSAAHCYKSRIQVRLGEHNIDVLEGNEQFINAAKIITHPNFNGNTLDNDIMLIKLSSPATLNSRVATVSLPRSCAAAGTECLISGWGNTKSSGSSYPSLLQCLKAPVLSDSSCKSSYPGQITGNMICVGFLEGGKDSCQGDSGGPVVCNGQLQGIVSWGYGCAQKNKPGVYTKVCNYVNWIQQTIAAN"},
  "source": "PubChem BioAssay AID488789",
  "about": "(Broad Institute, 2010)",
  "biological_target": "Trypsin (Sus scrofa) (UniProt P00761)",
  "assay": "trypsin protease activity blockade – biochemical, quenched peptide fluorescence, cherry-pick, selectivity assay for Rce1 protease inhibitor project, dose response (AID 488789);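 also: more negative means stronger trypsin inhibition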",
  "conditions": "porcine trypsin, quenched peptide cleavage fluorescence; at 10 µM (top of the series)",
  "note": "Only a part is listed here, and it is no random draw. Results with a measured potency or affinity are listed apart. Inconclusive results are not listed. The source made the active and inactive calls.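 The calls were made as follows: active = samples whose fitted half-maximal inhibition concentration is no more than ten times the top valid dose tested; inconclusive = flat response between -70 and -30, or invalid curve fit; inactive = flat within 30 of zero, potency above limit, or signal rising.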",
  "data": [
    {"smiles": "CN1CCC(Nc2cccc(F)c2)CC1", "values": [
      {"measurement": "activity change, negative = inhibition", "result": "inactive: 1.64%"}
    ]}
  ]
}
